## Apparent affinities of Ab-14 variants for a coronavirus HR2 peptide

Antigen: PDVDLGDISGINAS, a 14-residue peptide of the SARS-CoV-2 spike HR2 region.

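The parent was found by panning a naive human phage display library on the peptide. Designed CDR sequences, proposed from the first random library and measured here. Their group label is 14L_GP_HC (GP: Gaussian process model; HC: hill climbing; a sequence that several methods proposed may carry one label only). The scFvs were displayed on barcoded MATa yeast, the peptide on MATalpha yeast. After mating in shaken culture at 30 °C for 16 h, diploids were selected and their barcode pairs sequenced. Each replicate has its own calibration line, from reference interactions of the BCL2 family. The assay was run in six technical replicates.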

Ab-14 is the parent antibody, in scFv form: VH, then a 15-residue (Gly4Ser)3 linker, then VL. The heavy chain is unchanged in all variants.
VH: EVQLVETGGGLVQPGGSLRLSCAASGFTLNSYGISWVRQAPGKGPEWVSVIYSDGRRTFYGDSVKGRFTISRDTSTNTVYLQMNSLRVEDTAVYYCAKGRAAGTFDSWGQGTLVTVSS
VL: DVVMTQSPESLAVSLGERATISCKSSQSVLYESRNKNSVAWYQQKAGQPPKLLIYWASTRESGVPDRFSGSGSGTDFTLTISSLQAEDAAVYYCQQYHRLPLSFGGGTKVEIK

The parent's light chain CDRs are KSSQSVLYESRNKNSVA, WASTRES, QQYHRLPLS; each variant's own CDRs replace them letter for letter.
Affinities are written as log10 Kd with Kd in nM; a lower number is a better binder.
Replicates are averaged; those with no signal do not enter the mean.
The authors averaged sequences with at least three values out of six and counted those with two or fewer as poor binders.
As a blank, each scFv also met three strains without target: over all light chain designs, 4% of these pairings were detected, typically at 2.64 and seldom below 1.59. Also given: how often the same scFv was detected with the empty control strains, with their mean in brackets.
Of ten entries with the parent sequence, four were seen in most replicates (averages 0.34 to 2.37), three in one and three in none, so single entries are noisy.
A sequence measured in both rounds can read differently, since the two assays cover different ranges.

{"CDR-L1": "KISQSVLGEWRNKNSVA", "CDR-L2": "DASTRES", "CDR-L3": "QQYHRLPLS", "log10 Kd, replicates": "0.41 0.03 -0.03 0.25 0.20 0.39", "mean log10 Kd (nM)": "0.21", "empty controls": "0/18"}
{"CDR-L1": "KSSISVLYESPNKNSVA", "CDR-L2": "EASTRES", "CDR-L3": "QQYHRLPLS", "log10 Kd, replicates": "0.68 0.89 0.21 0.44 0.63 0.41", "mean log10 Kd (nM)": "0.54", "empty controls": "1/18 (3.65)"}
{"CDR-L1": "KVSQSVLYESGTKNSVA", "CDR-L2": "NASQRES", "CDR-L3": "QQYHRLPLS", "log10 Kd, replicates": "0.13 -0.05 -0.13 -0.04 0.06 0.03", "mean log10 Kd (nM)": "0.00", "empty controls": "1/18 (3.25)"}
{"CDR-L1": "KSSQSVLMESRNKNSVA", "CDR-L2": "DASLRES", "CDR-L3": "QQYHRLPLS", "log10 Kd, replicates": "-0.15 -0.18 -0.17 -0.39 -0.33 -0.39", "mean log10 Kd (nM)": "-0.27", "empty controls": "0/18"}
{"CDR-L1": "HLSWVVLYESRNKNSVA", "CDR-L2": "NASTREQ", "CDR-L3": "QQYHRLPLS", "log10 Kd, replicates": "-0.20 -0.35 -0.11 -0.43 -0.03 0.09", "mean log10 Kd (nM)": "-0.17", "empty controls": "1/18 (1.21)"}
{"CDR-L1": "KLSQSTLYESRNQNSVA", "CDR-L2": "NASTRES", "CDR-L3": "QQYHRLPLS", "log10 Kd, replicates": "-0.26 -0.34 -0.26 -0.53 -0.33 -0.27", "mean log10 Kd (nM)": "-0.33", "empty controls": "0/18"}
{"CDR-L1": "HLSDSVLYESRNDNSVA", "CDR-L2": "NASTRES", "CDR-L3": "QQYHRLPLN", "log10 Kd, replicates": "0.37 0.50 0.49 0.19 0.60 0.62", "mean log10 Kd (nM)": "0.46", "empty controls": "0/18"}
{"CDR-L1": "KSSISYLGEERNKNSVA", "CDR-L2": "EASTRES", "CDR-L3": "QQYHRLPLS", "log10 Kd, replicates": "0.27 0.09 0.17 0.12 0.06 0.23", "mean log10 Kd (nM)": "0.16", "empty controls": "1/18 (1.88)"}
{"CDR-L1": "KFSMSFLYESRNKNSVA", "CDR-L2": "GASTRES", "CDR-L3": "QQYHRLPLS", "log10 Kd, replicates": "-0.08 -0.47 -0.21 -0.29 -0.47 -0.22", "mean log10 Kd (nM)": "-0.29", "empty controls": "0/18"}
{"CDR-L1": "KMSQSVLYESRNKNSVA", "CDR-L2": "DASTRES", "CDR-L3": "QQYHRLPLD", "log10 Kd, replicates": "0.47 0.39 0.37 0.15 0.30 0.75", "mean log10 Kd (nM)": "0.41", "empty controls": "2/18 (2.32)"}
{"CDR-L1": "KSSIVVLYESHNKNSVA", "CDR-L2": "DASTRMS", "CDR-L3": "QQYHRLPLS", "log10 Kd, replicates": "0.58 0.50 0.30 0.31 0.48 0.40", "mean log10 Kd (nM)": "0.43", "empty controls": "0/18"}
{"CDR-L1": "KSSISYLYESMNKNSVA", "CDR-L2": "NASTRMS", "CDR-L3": "QQYHRLPLS", "log10 Kd, replicates": "-0.07 -0.02 -0.11 -0.31 -0.11 -0.05", "mean log10 Kd (nM)": "-0.11", "empty controls": "1/18 (3.54)"}
{"CDR-L1": "KSSISELEESRNKNSVA", "CDR-L2": "EASTRES", "CDR-L3": "QQYHRLPLS", "log10 Kd, replicates": "0.60 0.93 0.58 0.44 0.56 0.78", "mean log10 Kd (nM)": "0.65", "empty controls": "1/18 (2.26)"}
{"CDR-L1": "KSSQEKLYESRNKNSVA", "CDR-L2": "DASTRES", "CDR-L3": "QQYHRLPLS", "log10 Kd, replicates": "0.17 -0.16 -0.16 -0.36 -0.29 -0.02", "mean log10 Kd (nM)": "-0.14", "empty controls": "1/18 (2.53)"}
{"CDR-L1": "HSSPSELYESRNKNSVA", "CDR-L2": "NASTRES", "CDR-L3": "QQYHRLPLQ", "log10 Kd, replicates": "-0.05 0.29 -0.04 -0.15 0.05 0.30", "mean log10 Kd (nM)": "0.07", "empty controls": "2/18 (2.32)"}
{"CDR-L1": "KSYISYLYESRNKNSVA", "CDR-L2": "EASTRES", "CDR-L3": "QQYHRLPLS", "log10 Kd, replicates": "0.70 0.25 0.15 -0.02 0.19 0.09", "mean log10 Kd (nM)": "0.23", "empty controls": "3/18 (2.30)"}
{"CDR-L1": "KSSISWLIESRNKNSVA", "CDR-L2": "EASTRES", "CDR-L3": "QQYHRLPLS", "log10 Kd, replicates": "-0.28 -0.54 -0.26 -0.63 -0.49 -0.34", "mean log10 Kd (nM)": "-0.42", "empty controls": "2/18 (3.34)"}
{"CDR-L1": "KSSQSQLYESRNKNSVA", "CDR-L2": "HASTRED", "CDR-L3": "QQYHRLPLS", "log10 Kd, replicates": "0.80 1.14 0.93 0.64 1.92 1.35", "mean log10 Kd (nM)": "1.13", "empty controls": "1/18 (1.59)"}
{"CDR-L1": "KLPNSTLYESRQKNSVA", "CDR-L2": "AASTRES", "CDR-L3": "QQYHRLPLS", "log10 Kd, replicates": "0.46 0.33 0.15 0.20 0.16 0.38", "mean log10 Kd (nM)": "0.28", "empty controls": "1/18 (2.48)"}
{"CDR-L1": "KWSQSVLGEQRNKNSVA", "CDR-L2": "DASTRES", "CDR-L3": "QQYHRLPLS", "log10 Kd, replicates": "0.16 -0.10 -0.22 -0.57 -0.20 -0.11", "mean log10 Kd (nM)": "-0.17", "empty controls": "0/18"}
{"CDR-L1": "SFSQSVLYEGRTKNSVA", "CDR-L2": "NASTRES", "CDR-L3": "QQYHRLPLS", "log10 Kd, replicates": "0.29 0.14 0.06 -0.09 -0.02 0.31", "mean log10 Kd (nM)": "0.12", "empty controls": "1/18 (2.95)"}
{"CDR-L1": "KVRQSTLYESRNKNSVA", "CDR-L2": "QASTRES", "CDR-L3": "QQYHRLPLT", "log10 Kd, replicates": "0.35 0.01 -0.44 -0.03 -0.16 -0.02", "mean log10 Kd (nM)": "-0.05", "empty controls": "0/18"}

Repeated from above, the 2 best binders with a signal in all replicates:

CDR-L1	CDR-L2	CDR-L3	log10 Kd, replicates	mean log10 Kd (nM)	empty controls
KSSISWLIESRNKNSVA	EASTRES	QQYHRLPLS	-0.28 -0.54 -0.26 -0.63 -0.49 -0.34	-0.42	2/18 (3.34)
KLSQSTLYESRNQNSVA	NASTRES	QQYHRLPLS	-0.26 -0.34 -0.26 -0.53 -0.33 -0.27	-0.33	0/18

The measurements come from Li et al. 2023 (doi:10.1038/s41467-023-39022-2) through the FLAb antibody collection.